Data taken from patent US8975281B2, “Neosaxitoxin combination formulations for prolonged local anesthesia” (dated 2015).

How the values were obtained:
sciatic nerve [1] = experiment: Rat sciatic nerve blockade, extensor postural thrust (motor-proprioceptive)
sciatic nerve [2] = settings: 0.3 ml of bupivacaine 2.5 mg/ml; cutoffs 7 s thermal latency, 40 g EPT; cited from earlier work
sciatic nerve [3] = experiment: Rat sciatic nerve blockade, hotplate testing (thermal sensory-nocifensive)
[4] = bupivacaine alone, n = 20, median (IQR)

CCCCN1CCCCC1C(=O)Nc1c(C)cccc1C (centres unmarked)
Median time to 100% recovery, EPT testing (sciatic nerve [1]; 0.25% bupivacaine alone): 2.2 h
Time to 50% recovery of injected limb, Extensor Postural Thrust (sciatic nerve [1]; [4]): 2.01 (1.51-2.39) hours
Animals with complete block in previous studies (sciatic nerve [2]): > 98%
Median time to 100% recovery, hotplate testing (sciatic nerve [3]; 0.25% bupivacaine alone): 2.2 h
Time to 50% recovery of injected limb, Hotplate (sciatic nerve [3]; [4]): 1.5 (1.49-2.13) hours
